Experiments:
[1] = system: L1210 murine leukemia cell line; assay: cell growth inhibition in a cytotoxic assay with L1210; type: cell-based
[2] = stability in pH 7.0 phosphate buffer; type: physicochemical

Row | Structure (SMILES) | fold less potent than the parent drug 20 ([1]; L1210, relative to 20) | fold more potent than its unnatural enantiomer ([1]; L1210, relative to ent-(−)-6) [fold] | cleavage in buffer [2]
1 | O=C1Nc2cccc3c4c(cc(c23)O1)N(C(=O)c1cc2cc(NC(=O)c3cc5ccccc5[nH]3)ccc2[nH]1)CC4CCl (single isomer, unassigned; (+)) [(+)-6, N-(2-(10-(Chloromethyl)-5-oxo-5,8,9,10-tetrahydro-4H-pyrrolo[3',2':5,6]naphtho[1,8-de][1,3]oxazine-8-carbonyl)-1H-indol-5-yl)-1H-indole-2-carboxamide] | 30–70 fold | 6 | –
2 | O=C1Nc2cccc3c4c(cc(c23)O1)N(C(=O)c1cc2cc(NC(=O)c3cc5ccccc5[nH]3)ccc2[nH]1)CC4CCl (stereo not drawn) [Compound 6, N-(2-(10-(Chloromethyl)-5-oxo-5,8,9,10-tetrahydro-4H-pyrrolo[3',2':5,6]naphtho[1,8-de][1,3]oxazine-8-carbonyl)-1H-indol-5-yl)-1H-indole-2-carboxamide] | – | – | no cleavage observed

Reference: publication PMC3386426 (Journal of Medicinal Chemistry, 2012)
